Literature values in patent publication US20220143123A1, “Prevention of Pathological Coagulation in COVID-19 and other Inflammatory Conditions” (priority 2020, published 2022).

How the values were obtained:
[1] = system: mice with LPS-induced ARDS; settings: 10 mg/kg ip 1 h before LPS 10 mg/kg ip; cited from earlier work
[2] = system: mice with experimental colitis; settings: 50 and 100 mg/kg/day, compared with the MD group; cited from earlier work
[3] = system: lipopolysaccharide-activated macrophages; settings: 5 and 10 microM, 6-24 hr, versus macrophages without EGCG; cited from earlier work

epigallocatechin-3-gallate [EGCG]
LPS-induced ARDS (blood gases, histological lesions, wet-to-dry weight ratios, MPO activity) [1]: attenuated LPS-induced ARDS
disease activity index (DAI) and spleen index (SI) [2]: decreased DAIs and SIs
iNOS activity in soluble extracts [3]: significantly lower
